# Laboratory results from PubChem BioAssay AID588591 (National Center for Advancing Translational Sciences (NCATS), 2011).
# Protein sequences, listed by entry. Tags and fused reporters are not part of them.
# UniProt Q9Y253, whole entry: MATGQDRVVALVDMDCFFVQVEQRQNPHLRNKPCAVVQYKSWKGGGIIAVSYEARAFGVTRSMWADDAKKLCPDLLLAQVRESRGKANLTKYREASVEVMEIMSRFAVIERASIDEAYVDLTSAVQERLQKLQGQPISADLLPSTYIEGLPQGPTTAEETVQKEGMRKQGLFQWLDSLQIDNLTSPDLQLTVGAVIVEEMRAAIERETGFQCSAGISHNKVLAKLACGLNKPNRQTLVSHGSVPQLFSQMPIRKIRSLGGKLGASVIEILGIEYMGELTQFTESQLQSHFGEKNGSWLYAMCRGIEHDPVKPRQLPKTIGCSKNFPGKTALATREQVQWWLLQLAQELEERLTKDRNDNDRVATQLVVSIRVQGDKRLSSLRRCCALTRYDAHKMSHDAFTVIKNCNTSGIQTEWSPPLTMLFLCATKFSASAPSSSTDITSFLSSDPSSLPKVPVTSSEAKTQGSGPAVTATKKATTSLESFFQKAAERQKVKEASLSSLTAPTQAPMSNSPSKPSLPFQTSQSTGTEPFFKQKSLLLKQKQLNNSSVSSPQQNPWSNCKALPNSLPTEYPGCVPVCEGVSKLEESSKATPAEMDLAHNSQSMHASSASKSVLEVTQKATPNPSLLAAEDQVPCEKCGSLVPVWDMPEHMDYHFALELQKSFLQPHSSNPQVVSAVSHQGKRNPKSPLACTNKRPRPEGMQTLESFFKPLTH
# Only a part is listed here, and it is no random draw. Results filed as inconclusive are left out. Activity calls are given as the source filed them. The call rests on the fitted dose curve; in most records, active means well fitted inhibition curve with a large enough effect; inconclusive means small, poorly fitted or top-dose-only effect, or another doubt; inactive means no such curve, though single readings can be large or run the other way.
# Target: DNA polymerase eta (Homo sapiens) (UniProt Q9Y253)
# Experiment: qHTS for Inhibitors of Polymerase Eta
# Details: recombinant Pol eta, fluorescent DNA replication assay; at 114 µM (top of the series)
# On the % scale 0 is the no-effect control and ±100 the full control effect.
row,SMILES,"activity change, negative = inhibition"
1,Cc1ccccc1NC1(C#N)CCN(Cc2ccccc2)CC1,inactive: -12.6%
2,CCN1CCC(Nc2cccc(F)c2)CC1,inactive: -16.4%
3,CC(C)(C)c1ccc(C(=O)NCC2(N3CCOCC3)CCCCC2)cc1,inactive: -20.6%
4,O=C(NCC1(N2CCCCC2)CCCCC1)c1ccco1,inactive: -3.43%
5,Cn1c(=O)[nH]cc(N(CCCl)CCCl)c1=O,inactive: -16.9%
6,CN(C)c1ccc(C(=O)NCC2(N3CCCCC3)CCCCC2)cc1,inactive: -2.17%
7,Cc1ccccc1C(=O)NCC1(N(C)C)CCCCC1,inactive: 6.66%
8,COc1cc(OC)cc(C(=O)NCC2(N3CCCCC3)CCCCC2)c1,inactive: -8.03%
9,CC(=O)N(c1ccccc1)C1CCNCC1,inactive: -13.1%
10,CN(C)C1(CNC(=O)c2ccc(C(C)(C)C)cc2)CCCCC1,inactive: -10.2%
11,Cc1ccc(NC2(C#N)CCN(Cc3ccccc3)CC2)cc1,inactive: -3.96%
12,Cc1ccc(C(=O)NCC2(N3CCCCC3)CCCCC2)o1,inactive: -6.18%
13,Cc1ccc(Nc2c([N+](=O)[O-])cc([N+](=O)[O-])cc2[N+](=O)[O-])cc1,inactive: -16.9%
14,Fc1ccccc1NC1CCN(Cc2ccccc2)CC1,inactive: 3.68%
15,CCC(CO)(C(=O)OC1CN2CCC1CC2)c1ccccc1 (configuration not stated),inactive: -0.428%
16,COc1cccc(C(=O)N(c2cc(C)cc(C)c2)C2CCN(C(=O)OC(C)(C)C)CC2)c1,inactive: -15.1%
17,COc1cc(C(=O)NCC2(N3CCOCC3)CCCCC2)cc(OC)c1OC,inactive: -11.1%
18,COc1cc(OC)cc(C(=O)NCC2(N3CCOCC3)CCCCC2)c1,inactive: -5.15%
19,CN1CCC(Nc2ccc(Cl)cc2)CC1,inactive: -17.1%
20,CCOc1ncccc1C(=O)NCC1(N2CCOCC2)CCCCC1,inactive: -9.24%
21,CN1CCC(Nc2ccc(F)c(Cl)c2)CC1,inactive: -18.3%
22,CCCOc1ccc(C(=O)NCC2(N(C)C)CCCCC2)cc1,inactive: -8.98%
23,CC(C)(C)OC(=O)N1CCC(Nc2ccccc2)CC1,inactive: -9.03%

row,SMILES,"activity change, negative = inhibition"
1,O=C(O)C1(Nc2ccccc2)CCN(Cc2ccccc2)CC1,inactive: -16.6%
2,N/C(=N\O)c1c(N)no[n+]1[O-],inactive: -18.5%
3,CCOC(=O)N1CCC(Nc2ccc(C)cc2)CC1,inactive: -3.87%
4,O=C(OC1CN2CCC1CC2)C1c2ccccc2C=Cc2ccccc21 (configuration not stated),inactive: -19.3%
5,CCc1cc(C(=O)NCC2(N3CCCCC3)CCCCC2)sc1C,inactive: -17%
6,O=C(NCC1(N2CCOCC2)CCCCC1)c1cc(Br)ccc1Cl,inactive: -8.77%
7,COc1cc(C(=O)NCC2(N3CCOCC3)CCCCC2)cc(OC)c1C,inactive: -14.9%
8,COc1ccc(C(=O)NCC2(N3CCOCC3)CCCCC2)cc1OC,inactive: -5.03%
9,c1ccc(CN2CCC(Nc3ccccc3)CC2)cc1,inactive: -5.68%
10,CCCN1CCC(Nc2cc(OC)cc(OC)c2)CC1,inactive: -23.9%
11,Cc1cc(N(CCCl)CCCl)ccc1C=O,inactive: -19%
12,O=C(NCC1(N2CCOCC2)CCCCC1)c1ccccc1,inactive: 5.71%
13,CN(C)C1(CNC(=O)c2cccc(C#N)c2)CCCCC1,inactive: -3.52%
14,O=C(NCC1(N2CCOCC2)CCCCC1)c1ccc([N+](=O)[O-])cc1,inactive: -18.5%
15,O=C(NCC1(N2CCOCC2)CCCCC1)c1ccccc1[N+](=O)[O-],inactive: -8.93%
16,N#Cc1ccc(C(=O)NCC2(N3CCCCC3)CCCCC2)cc1,inactive: 0.215%
17,CCOC(=O)C(CC)C1=NC(C)(C)Cc2ccccc21.O=[N+]([O-])c1cc([N+](=O)[O-])c(O)c([N+](=O)[O-])c1 (configuration not stated),inactive: -20.4%
18,O=C(NCC1(N2CCCCC2)CCCCC1)c1cccc(C(F)(F)F)c1,inactive: -6.43%
19,CCCOc1cccc(C(=O)NCC2(N3CCOCC3)CCCCC2)c1,inactive: -8.51%
20,O=[N+]([O-])c1cc([N+](=O)[O-])c(NCC2CCS(=O)(=O)C2)c([N+](=O)[O-])c1 (configuration not stated),inactive: -14.9%
21,COc1ccc(NC2CCN(C(=O)OC(C)(C)C)CC2)cc1,inactive: -13.5%
22,CC(C)c1ccc(C(=O)NCC2(N3CCOCC3)CCCCC2)cc1,inactive: -9.39%
23,CN1CCN(CCOC(=O)C(O)(c2ccccc2)c2ccccc2)CC1,inactive: 11.1%

row,SMILES,"activity change, negative = inhibition"
1,O=C(NCC1(N2CCOCC2)CCCCC1)c1cc(=O)[nH]c2ccccc12,inactive: -4.12%
2,COc1cc(C(=O)NCC2(N3CCCCC3)CCCCC2)ccc1OC(F)F,inactive: -17.7%
3,O=C(NCC1(N2CCCCC2)CCCCC1)c1ccc(OC(F)F)cc1,inactive: -19.2%
4,O=C(NCC1(N2CCCCC2)CCCCC1)c1cccc([N+](=O)[O-])c1,inactive: 6.2%
5,CCOc1ccc(C(=O)NCC2(N3CCOCC3)CCCCC2)cc1,inactive: -9.29%
6,CSc1ccc(C(=O)NCC2(N3CCOCC3)CCCCC2)cc1,inactive: -0.0626%
7,CCN1CCC(Nc2ccc(Cl)cc2)CC1,inactive: -3.75%
8,N#CC1(Nc2ccccc2)CCN(CCc2ccccc2)CC1,inactive: 3.83%
9,O=C(NCC1(N2CCCCC2)CCCCC1)c1cncc(Br)c1,inactive: -3.17%
10,CN1CCC(Nc2cccc(F)c2)CC1,inactive: -10.3%
11,O=C(OC1CN2CCC1CC2)c1ccc([N+](=O)[O-])cc1 (configuration not stated),inactive: -19.9%
12,Cc1ccc(C(=O)NCC2(N(C)C)CCCCC2)o1,inactive: -0.103%
13,CCCCOc1ccccc1C(=O)NCC1(N2CCOCC2)CCCCC1,inactive: -7.92%
14,CCCOc1ccc(C(=O)NCC2(N(C)C)CCCCC2)cc1OC,inactive: -8.61%
15,O=C(NCC1(N2CCOCC2)CCCCC1)c1ccccc1Br,inactive: -13.2%
16,O=[N+]([O-])c1cc([N+](=O)[O-])c(Nc2ccc(Cl)cc2)c([N+](=O)[O-])c1,inactive: -3.77%
17,COc1ccc(CN(CCCl)CCCl)cc1Cl,inactive: -27.9%
18,CN(C)c1cccc(C(=O)NCC2(N3CCCCC3)CCCCC2)c1,inactive: -15.2%
19,O=[N+]([O-])c1cc([N+](=O)[O-])c(OC2CCCCC2O)c([N+](=O)[O-])c1 (configuration not stated),inactive: -22.3%
20,COc1cc(OC)c(C(=O)NCC2(N(C)C)CCCCC2)cc1OC,inactive: 8.88%
21,O=C(NCC1(N2CCOCC2)CCCCC1)c1cc(F)c(F)cc1Cl,inactive: -14.9%
22,O=C(NCC1(N2CCOCC2)CCCCC1)c1cc2ccccc2o1,inactive: -2.11%
23,O=C(NCC1(N2CCCCC2)CCCCC1)c1ccc(Cl)nc1,inactive: -9.84%

row,SMILES,"activity change, negative = inhibition"
1,Cc1cc(C)cc(N(C(=O)c2ccccc2)C2CCN(C(=O)OC(C)(C)C)CC2)c1,inactive: -12.2%
2,CCOC(=O)N1CCC(Nc2ccc(OC)cc2)CC1,inactive: -7.44%
3,O=C(NCC1(N2CCCCC2)CCCCC1)c1ccc(Cl)s1,inactive: -9.04%
4,N#CC1(Nc2ccccc2)CCN(Cc2ccccc2)CC1,inactive: -2.48%
5,COc1ccc(Cl)cc1C(=O)NCC1(N2CCOCC2)CCCCC1,inactive: -22.7%
6,O=C(NCC1(N2CCCCC2)CCCCC1)c1ccc(=O)[nH]c1,inactive: -13.2%
7,O=C(NCC1(N2CCCCC2)CCCCC1)c1cccs1,inactive: 6.2%
8,COc1ccc(C(=O)NCC2(N3CCCCC3)CCCCC2)cc1,inactive: -5.89%
9,COc1ccc(C(=O)NCC2(N3CCCCC3)CCCCC2)c(OC)c1OC,inactive: -1.02%
10,CC(C)(C)OC(=O)N1CCC(N(C(=O)c2ccccc2)c2ccc(F)cc2)CC1,inactive: -23.2%
11,CSc1ccccc1C(=O)NCC1(N2CCCCC2)CCCCC1,inactive: 1.1%
12,Cc1cccc(NC2(C#N)CCN(Cc3ccccc3)CC2)c1,inactive: -19.8%
13,COc1cc(C(=O)NCC2(N(C)C)CCCCC2)ccc1OC(F)F,inactive: -11%
14,CCOC(=O)N1CCC(Nc2cccc(C)c2)CC1,inactive: -12.1%
15,CCOc1ccc(C)cc1CN(CCCl)CCCl,inactive: -8.25%
16,O=C(NCC1(N2CCOCC2)CCCCC1)c1ccc(Cl)cc1,inactive: -13.9%
17,O=C1CCN(Cc2ccccc2)CC1,inactive: -6.04%
18,O=C(NCC1(N2CCCCC2)CCCCC1)c1ccc(F)cc1,inactive: -18.2%
19,CCCCOc1ccc(C(=O)NCC2(N3CCOCC3)CCCCC2)cc1,inactive: -4.15%
20,O=P1(N(CCCl)CCCl)SCCCS1,inactive: -7.19%
21,CCOC(=O)N1CCC(Nc2ccc(F)cc2)CC1,inactive: -18.7%
22,COc1ccc(NC2CCN(CCc3ccccc3)CC2)c(OC)c1,inactive: -7.72%
23,COc1ccccc1C(=O)NCC1(N2CCOCC2)CCCCC1,inactive: -0.161%
